Values quoted from earlier work as cited in patent US20220175738A1, “Tip60 Inhibitors and Methods of Use for Cardiovascular Disease” (The Medical College of Wisconsin, Inc., priority 2019, published 2022).

Chains of the proteins cited; added tags and fusions are not shown.
UniProt Q92830, whole entry, species assumed: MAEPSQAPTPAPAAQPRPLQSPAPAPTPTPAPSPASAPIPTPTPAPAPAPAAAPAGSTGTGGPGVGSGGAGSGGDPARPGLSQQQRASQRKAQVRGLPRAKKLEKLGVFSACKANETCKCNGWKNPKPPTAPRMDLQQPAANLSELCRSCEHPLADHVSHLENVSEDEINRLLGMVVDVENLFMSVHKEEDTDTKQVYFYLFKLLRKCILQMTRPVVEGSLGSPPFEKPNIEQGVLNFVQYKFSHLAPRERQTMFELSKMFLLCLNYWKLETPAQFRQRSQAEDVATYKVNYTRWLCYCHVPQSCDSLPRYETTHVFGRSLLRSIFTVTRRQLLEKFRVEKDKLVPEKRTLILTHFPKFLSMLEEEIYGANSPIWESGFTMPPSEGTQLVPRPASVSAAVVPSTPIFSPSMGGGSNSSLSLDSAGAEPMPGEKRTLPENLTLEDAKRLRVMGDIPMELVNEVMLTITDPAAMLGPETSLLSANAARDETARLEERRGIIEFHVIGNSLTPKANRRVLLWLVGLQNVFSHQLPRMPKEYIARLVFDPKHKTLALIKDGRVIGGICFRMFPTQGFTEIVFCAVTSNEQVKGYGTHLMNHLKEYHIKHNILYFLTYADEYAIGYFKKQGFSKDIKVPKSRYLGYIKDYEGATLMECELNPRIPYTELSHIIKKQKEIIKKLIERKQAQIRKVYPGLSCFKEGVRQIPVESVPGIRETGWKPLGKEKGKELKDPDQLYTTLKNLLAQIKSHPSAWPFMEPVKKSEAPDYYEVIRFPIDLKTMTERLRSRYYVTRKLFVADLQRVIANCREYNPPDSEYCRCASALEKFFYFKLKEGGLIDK
UniProt Q92831, whole entry, species assumed: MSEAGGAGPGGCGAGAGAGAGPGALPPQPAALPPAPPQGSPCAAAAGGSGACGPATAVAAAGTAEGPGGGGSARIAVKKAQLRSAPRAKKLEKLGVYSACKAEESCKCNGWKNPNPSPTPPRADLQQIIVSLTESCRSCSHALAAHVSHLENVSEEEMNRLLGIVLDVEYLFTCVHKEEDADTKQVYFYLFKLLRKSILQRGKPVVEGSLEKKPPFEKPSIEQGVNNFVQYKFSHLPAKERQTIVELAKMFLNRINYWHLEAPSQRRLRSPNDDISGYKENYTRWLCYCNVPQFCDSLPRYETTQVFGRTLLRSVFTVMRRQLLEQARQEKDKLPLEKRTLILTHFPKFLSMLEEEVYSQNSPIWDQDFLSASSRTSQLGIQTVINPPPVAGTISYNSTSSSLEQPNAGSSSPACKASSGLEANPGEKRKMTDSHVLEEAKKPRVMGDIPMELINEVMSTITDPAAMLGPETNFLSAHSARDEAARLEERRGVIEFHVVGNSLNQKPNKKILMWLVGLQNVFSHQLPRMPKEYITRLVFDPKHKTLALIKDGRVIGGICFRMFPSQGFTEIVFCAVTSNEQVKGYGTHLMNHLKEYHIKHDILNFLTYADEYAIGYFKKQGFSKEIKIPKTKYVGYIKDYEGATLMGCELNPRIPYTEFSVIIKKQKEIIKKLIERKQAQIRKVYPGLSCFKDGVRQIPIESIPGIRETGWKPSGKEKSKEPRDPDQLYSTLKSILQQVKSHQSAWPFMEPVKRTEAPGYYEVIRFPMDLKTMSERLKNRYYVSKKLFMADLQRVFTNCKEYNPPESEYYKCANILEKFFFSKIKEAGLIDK
UniProt Q09472, whole entry, species assumed: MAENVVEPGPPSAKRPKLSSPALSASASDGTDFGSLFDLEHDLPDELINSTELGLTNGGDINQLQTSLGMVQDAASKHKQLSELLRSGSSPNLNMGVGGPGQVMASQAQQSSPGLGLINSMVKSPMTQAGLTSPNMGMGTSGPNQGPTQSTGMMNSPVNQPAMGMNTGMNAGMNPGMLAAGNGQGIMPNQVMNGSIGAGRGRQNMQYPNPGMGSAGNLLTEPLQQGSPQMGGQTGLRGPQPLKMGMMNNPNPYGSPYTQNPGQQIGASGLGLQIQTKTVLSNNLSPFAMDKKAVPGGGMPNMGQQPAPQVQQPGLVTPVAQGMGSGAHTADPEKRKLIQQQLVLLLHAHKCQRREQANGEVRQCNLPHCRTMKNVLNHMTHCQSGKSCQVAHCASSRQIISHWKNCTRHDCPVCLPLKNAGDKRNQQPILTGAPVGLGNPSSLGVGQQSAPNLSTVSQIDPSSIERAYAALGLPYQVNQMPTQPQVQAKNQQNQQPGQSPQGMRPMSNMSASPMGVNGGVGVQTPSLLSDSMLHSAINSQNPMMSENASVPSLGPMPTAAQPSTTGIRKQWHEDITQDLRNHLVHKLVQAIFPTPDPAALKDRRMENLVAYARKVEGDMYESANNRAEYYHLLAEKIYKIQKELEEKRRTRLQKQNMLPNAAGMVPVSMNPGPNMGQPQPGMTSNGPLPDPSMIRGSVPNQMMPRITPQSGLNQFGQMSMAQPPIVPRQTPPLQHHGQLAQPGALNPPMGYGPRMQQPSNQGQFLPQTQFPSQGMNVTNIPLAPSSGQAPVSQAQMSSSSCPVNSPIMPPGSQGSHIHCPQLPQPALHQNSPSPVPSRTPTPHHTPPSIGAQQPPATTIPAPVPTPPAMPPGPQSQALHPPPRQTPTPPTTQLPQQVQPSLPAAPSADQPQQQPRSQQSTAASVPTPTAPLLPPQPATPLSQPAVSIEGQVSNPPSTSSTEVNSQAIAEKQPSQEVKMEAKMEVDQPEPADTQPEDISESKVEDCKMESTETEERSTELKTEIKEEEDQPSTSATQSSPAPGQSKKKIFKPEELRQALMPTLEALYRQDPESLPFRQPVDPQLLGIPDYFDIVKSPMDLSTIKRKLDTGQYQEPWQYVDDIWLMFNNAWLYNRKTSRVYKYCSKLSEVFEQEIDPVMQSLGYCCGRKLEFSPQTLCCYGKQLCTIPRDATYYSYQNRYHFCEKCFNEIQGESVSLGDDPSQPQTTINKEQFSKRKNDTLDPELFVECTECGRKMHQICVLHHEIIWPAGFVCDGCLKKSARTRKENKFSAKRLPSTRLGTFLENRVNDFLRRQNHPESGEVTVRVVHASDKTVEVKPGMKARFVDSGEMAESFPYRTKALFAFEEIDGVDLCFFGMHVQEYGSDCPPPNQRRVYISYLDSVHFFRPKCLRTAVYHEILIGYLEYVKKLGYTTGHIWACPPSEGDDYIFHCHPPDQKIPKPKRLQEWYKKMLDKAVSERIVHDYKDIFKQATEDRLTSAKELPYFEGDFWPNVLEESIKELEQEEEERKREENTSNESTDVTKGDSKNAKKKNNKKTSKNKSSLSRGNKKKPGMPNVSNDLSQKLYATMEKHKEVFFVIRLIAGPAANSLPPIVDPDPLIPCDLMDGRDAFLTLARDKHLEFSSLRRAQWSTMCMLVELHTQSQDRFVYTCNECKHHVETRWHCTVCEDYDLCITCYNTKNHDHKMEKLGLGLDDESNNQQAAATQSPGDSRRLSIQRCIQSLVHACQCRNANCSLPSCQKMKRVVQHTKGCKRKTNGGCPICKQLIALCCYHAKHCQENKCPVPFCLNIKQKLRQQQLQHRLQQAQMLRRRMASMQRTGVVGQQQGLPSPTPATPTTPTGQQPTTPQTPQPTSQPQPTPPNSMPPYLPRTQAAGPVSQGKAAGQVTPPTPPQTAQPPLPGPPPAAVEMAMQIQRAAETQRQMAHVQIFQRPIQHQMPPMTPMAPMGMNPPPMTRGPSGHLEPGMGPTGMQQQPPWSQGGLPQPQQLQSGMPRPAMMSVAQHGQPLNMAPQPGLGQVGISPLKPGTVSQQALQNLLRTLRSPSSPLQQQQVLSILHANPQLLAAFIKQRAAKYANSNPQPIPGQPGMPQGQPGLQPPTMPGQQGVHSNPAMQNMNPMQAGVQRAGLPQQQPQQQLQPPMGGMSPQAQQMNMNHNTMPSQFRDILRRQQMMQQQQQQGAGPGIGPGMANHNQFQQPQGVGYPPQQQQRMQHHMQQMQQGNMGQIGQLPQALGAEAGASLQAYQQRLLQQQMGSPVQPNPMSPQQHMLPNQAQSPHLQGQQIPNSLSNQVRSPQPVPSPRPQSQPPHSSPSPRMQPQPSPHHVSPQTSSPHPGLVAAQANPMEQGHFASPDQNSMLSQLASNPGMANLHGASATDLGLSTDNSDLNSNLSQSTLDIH
UniProt Q92993, whole entry, species assumed: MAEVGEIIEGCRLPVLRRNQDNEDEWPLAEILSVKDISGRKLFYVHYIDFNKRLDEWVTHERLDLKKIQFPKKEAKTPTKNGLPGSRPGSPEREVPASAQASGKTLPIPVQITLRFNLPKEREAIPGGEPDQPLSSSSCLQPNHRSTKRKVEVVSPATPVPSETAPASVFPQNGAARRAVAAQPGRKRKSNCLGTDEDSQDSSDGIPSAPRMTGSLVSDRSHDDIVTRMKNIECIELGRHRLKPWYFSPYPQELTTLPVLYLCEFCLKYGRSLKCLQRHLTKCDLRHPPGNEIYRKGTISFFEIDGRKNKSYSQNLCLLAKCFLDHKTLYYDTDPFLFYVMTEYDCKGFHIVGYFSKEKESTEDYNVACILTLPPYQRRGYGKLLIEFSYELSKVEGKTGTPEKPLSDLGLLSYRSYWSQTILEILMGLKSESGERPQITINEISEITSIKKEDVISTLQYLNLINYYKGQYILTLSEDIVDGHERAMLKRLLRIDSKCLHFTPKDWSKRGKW

What was measured:
GCN5 = GCN5 (Homo sapiens, UniProt Q92830); conditions: acetylase domain; cited from earlier work
pCAF = pCAF (Homo sapiens, UniProt Q92831); conditions: acetylase domain; cited from earlier work
p300 = p300 (Homo sapiens, UniProt Q09472); conditions: acetylase domain; cited from earlier work
Tip60 = Tip60 (Homo sapiens, UniProt Q92993); conditions: HAT domain; cited from earlier work

## c1cc(SSc2ccns2)sn1 [NU9056]
GCN5
  IC50: > 100 µM
pCAF
  IC50: 36 µM
p300
  IC50: 60 µM
Tip60
  IC50: < 2 µM
